These results are taken from PubChem BioAssay AID463190 (Sanford-Burnham Center for Chemical Genomics, 2010).

Structures are written as SMILES. The entries are a selection whose mix differs from that of the whole data set. Active and inactive are the calls of the source.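 The calls were made as follows: active = inhibition of at least 40%; inactive = the rest.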

A short description of this test: growth inhibition of tim10-1 ts yeast – luminescence, uHTS, primary screen (AID 463190).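 Also: mutant grown at 25 °C; 0% = DMSO wells with yeast and 100% = wells holding no yeast.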 Conditions: S. cerevisiae tim10-1 ts strain growth, BacTiter-Glo, 24 h; at 20 µM; stronger effect = higher value.
With `N#CC1(Nc2ccccc2)CCN(Cc2ccccc2)CC1`, the inhibition is inactive: 5.97%.
Under `O=C(NCC1(N2CCCCC2)CCCCC1)c1ccc(Cl)s1` stands inactive: -2.55%; under `O=C(OC1CN2CCC1CC2)C1c2ccccc2Oc2ccccc21` (configuration not stated), inactive: 18%.
`COc1ccc(Cl)cc1C(=O)NCC1(N2CCOCC2)CCCCC1`: the inhibition was inactive: 9.39%.
For `CCOC(=O)N1CCC(Nc2ccc(OC)cc2)CC1`, the inhibition was inactive: 7.91%.
In the case of `O=C(NCC1(N2CCCCC2)CCCCC1)c1ccc(Cl)nc1`, the inhibition is inactive: 15.2%.
On to `Cc1cc(C)cc(N(C(=O)c2ccccc2)C2CCN(C(=O)OC(C)(C)C)CC2)c1`, for which the inhibition is inactive: 13.9%.
The result for `O=C(NCC1(N2CCOCC2)CCCCC1)c1cc2ccccc2o1` reads inactive: 2.83%; that for `CSc1ccccc1C(=O)NCC1(N2CCCCC2)CCCCC1`, inactive: -8.38%; that for `COc1ccc(C(=O)NCC2(N3CCCCC3)CCCCC2)cc1`, inactive: 14.7%.
The result for `CC(C)(C)OC(=O)N1CCC(N(C(=O)c2ccccc2)c2ccc(F)cc2)CC1` reads inactive: 12.5%.
As for `COc1ccc(C(=O)NCC2(N3CCCCC3)CCCCC2)c(OC)c1OC`, the inhibition was inactive: 19.5%.
Consider `O=C(NCC1(N2CCCCC2)CCCCC1)c1ccc(=O)[nH]c1`, for which the inhibition is inactive: -2.01%.
Under `O=C(NCC1(N2CCCCC2)CCCCC1)c1cccs1` stands inactive: 7.2%; under `CCOC(=O)N1CCC(Nc2cccc(C)c2)CC1`, inactive: -7.55%; under `Cc1ccc(OCC(C)C)c(CN(CCCl)CCCl)c1`, inactive: 10.9%.
As to `CCCCOc1ccc(C(=O)NCC2(N3CCOCC3)CCCCC2)cc1`, the inhibition is inactive: 30.3%.
Regarding `O=C(NCC1(N2CCCCC2)CCCCC1)c1ccc(F)cc1`, the inhibition is inactive: -2.09%.
As to `COc1ccc(NC2CCN(CCc3ccccc3)CC2)c(OC)c1`, the inhibition was inactive: 1.13%.
In the case of `CCOC(=O)N1CCC(Nc2ccc(F)cc2)CC1`, the inhibition is inactive: -1.06%.
Take `CCOc1ccc(C)cc1CN(CCCl)CCCl`: the inhibition is inactive: -15.7%.
Under `COc1cc(C(=O)NCC2(N3CCCCC3)CCCCC2)ccc1OC(F)F` stands inactive: 3.21%; under `O=C(NCC1(N2CCOCC2)CCCCC1)c1cc(=O)[nH]c2ccccc12`, inactive: -13.9%; under `CN1CCN(CCOC(=O)C(O)(c2ccccc2)c2ccccc2)CC1`, inactive: 13.4%.
For `CC(C)c1ccc(C(=O)NCC2(N3CCOCC3)CCCCC2)cc1`, the inhibition was inactive: 27.2%.
Take `COc1ccc(NC2CCN(C(=O)OC(C)(C)C)CC2)cc1`: the inhibition is inactive: 3.68%.
Under `O=C(NCC1(N2CCCCC2)CCCCC1)c1cccc(C(F)(F)F)c1` stands inactive: -8.23%; under `CCN1CCC(Nc2ccc(Cl)cc2)CC1`, inactive: -17.3%.
Under `N#CC1(Nc2ccccc2)CCN(CCc2ccccc2)CC1` stands inactive: 8.43%; under `CSc1ccc(C(=O)NCC2(N3CCOCC3)CCCCC2)cc1`, inactive: 8.33%; under `O=C(NCC1(N2CCCCC2)CCCCC1)c1cccc([N+](=O)[O-])c1`, inactive: 3.42%.
Under `O=C(NCC1(N2CCCCC2)CCCCC1)c1ccc(OC(F)F)cc1` stands inactive: 21.1%.
Turning to `CN1CCC(Nc2cccc(F)c2)CC1`, the inhibition is inactive: 0.555%.
Under `O=C(NCC1(N2CCCCC2)CCCCC1)c1cncc(Br)c1` stands inactive: -14%; under `COc1cc(OC)c(C(=O)NCC2(N(C)C)CCCCC2)cc1OC`, inactive: 3.11%; under `O=C(NCC1(N2CCOCC2)CCCCC1)c1cc(F)c(F)cc1Cl`, inactive: -14.5%.
Under `CC(C)c1ccc(NC2CCN(C(=O)OC(C)(C)C)CC2)cc1` stands inactive: 21.5%; under `COc1ccc(CN(CCCl)CCCl)cc1Cl`, inactive: -6.43%.
For `CN(C)c1cccc(C(=O)NCC2(N3CCCCC3)CCCCC2)c1`, the inhibition was inactive: 7.14%.
Under `CCc1cc(C(=O)NCC2(N3CCCCC3)CCCCC2)sc1C` stands inactive: 2.78%; under `O=C(OC1CN2CCC1CC2)C1c2ccccc2C=Cc2ccccc21` (configuration not stated), inactive: 5.01%.
As to `CCOC(=O)N1CCC(Nc2ccc(C)cc2)CC1`, the inhibition is inactive: 6.94%.
With `N/C(=N\O)c1c(N)no[n+]1[O-]`, the inhibition is inactive: -8.03%.
The result for `COc1ccc(C(=O)NCC2(N3CCOCC3)CCCCC2)cc1OC` reads inactive: 7.11%; that for `COc1cc(C(=O)NCC2(N3CCOCC3)CCCCC2)cc(OC)c1C`, inactive: 2.92%; that for `O=C(NCC1(N2CCOCC2)CCCCC1)c1cc(Br)ccc1Cl`, inactive: 11.5%.
As for `CN(C)C1(CNC(=O)c2cccc(C#N)c2)CCCCC1`, the inhibition is inactive: 4.6%.
Consider `c1ccc(CN2CCC(Nc3ccccc3)CC2)cc1`, for which the inhibition was inactive: 0.981%.
On to `CCCN1CCC(Nc2cc(OC)cc(OC)c2)CC1`, for which the inhibition is inactive: -21.5%.
For the molecule `N#Cc1ccc(C(=O)NCC2(N3CCCCC3)CCCCC2)cc1`, the inhibition was inactive: 8.19%.
For `CC(C)(C)OC(=O)N1CCC(N(C(=O)c2ccccc2)c2ccc(Cl)cc2)CC1`, the inhibition was inactive: 16.7%.
The result for `O=C(NCC1(N2CCCCC2)CCCCC1)c1ccco1` reads inactive: -9.99%; that for `CN(C)c1ccc(C(=O)NCC2(N3CCCCC3)CCCCC2)cc1`, inactive: 6.59%.
Under `CCN1CCC(Nc2cccc(F)c2)CC1` stands inactive: -9.53%; under `Cc1ccc(C(=O)NCC2(N3CCCCC3)CCCCC2)o1`, inactive: 2.27%; under `Fc1ccccc1NC1CCN(Cc2ccccc2)CC1`, inactive: -21%.
Under `COc1cc(OC)cc(C(=O)NCC2(N3CCCCC3)CCCCC2)c1` stands inactive: 20.5%; under `CN1CCC(Nc2ccc(Cl)cc2)CC1`, inactive: 4.46%; under `CCCOc1ccc(C)cc1CN(CCCl)CCCl`, inactive: -13.8%.
As for `COc1cc(OC)cc(C(=O)NCC2(N3CCOCC3)CCCCC2)c1`, the inhibition is inactive: -2.48%.
The result for `COc1cccc(C(=O)N(c2cc(C)cc(C)c2)C2CCN(C(=O)OC(C)(C)C)CC2)c1` reads inactive: 24.5%; that for `CCC(CO)(C(=O)OC1CN2CCC1CC2)c1ccccc1` (configuration not stated), inactive: -14%; that for `CC(C)(C)OC(=O)N1CCC(Nc2ccccc2)CC1`, inactive: -8.23%.
`O=C(O)C1(Nc2ccccc2)CCN(Cc2ccccc2)CC1`: the inhibition is inactive: 11.6%.
`CCCOc1ccc(C(=O)NCC2(N(C)C)CCCCC2)cc1`: the inhibition was inactive: 7.28%.
Regarding `CCOc1ncccc1C(=O)NCC1(N2CCOCC2)CCCCC1`, the inhibition was inactive: 28.1%.
Consider `CN1CCC(Nc2ccc(F)c(Cl)c2)CC1`, for which the inhibition was inactive: -13.5%.
